Source: patent EP0384421A2, “Use of PAF antagonists in the treatment of pathologic changes of the blood gas” (BOEHRINGER INGELHEIM KG, priority 1989, dated 1990)

Tested on: Methylparathion
Conditions: Methylparathion 20 mg/kg po 15 Min., no treatment; rats, mean of 6-15

Question: How did the PCO2 turn out when `COP(=S)(OC)Oc1ccc([N+](=O)[O-])cc1` [Methylparathion, reference compound] was run?
Answer: The PCO2 was 97,7.

Question: And the PO2?
Answer: Its PO2 is 20,6.

Question: And the pH?
Answer: Its pH is 7,08.
